Assay results: patent US6780853B1, “Neuroactive steroids of the androstane and pregnane series” (priority 1995, dated 2004)

Target: T1, Glucocorticoid Receptors (Rattus norvegicus, UniProt P06536)
T1 construct: from tissue; host or cells: rat brain cytosol
T1 sequence (P06536 1-795): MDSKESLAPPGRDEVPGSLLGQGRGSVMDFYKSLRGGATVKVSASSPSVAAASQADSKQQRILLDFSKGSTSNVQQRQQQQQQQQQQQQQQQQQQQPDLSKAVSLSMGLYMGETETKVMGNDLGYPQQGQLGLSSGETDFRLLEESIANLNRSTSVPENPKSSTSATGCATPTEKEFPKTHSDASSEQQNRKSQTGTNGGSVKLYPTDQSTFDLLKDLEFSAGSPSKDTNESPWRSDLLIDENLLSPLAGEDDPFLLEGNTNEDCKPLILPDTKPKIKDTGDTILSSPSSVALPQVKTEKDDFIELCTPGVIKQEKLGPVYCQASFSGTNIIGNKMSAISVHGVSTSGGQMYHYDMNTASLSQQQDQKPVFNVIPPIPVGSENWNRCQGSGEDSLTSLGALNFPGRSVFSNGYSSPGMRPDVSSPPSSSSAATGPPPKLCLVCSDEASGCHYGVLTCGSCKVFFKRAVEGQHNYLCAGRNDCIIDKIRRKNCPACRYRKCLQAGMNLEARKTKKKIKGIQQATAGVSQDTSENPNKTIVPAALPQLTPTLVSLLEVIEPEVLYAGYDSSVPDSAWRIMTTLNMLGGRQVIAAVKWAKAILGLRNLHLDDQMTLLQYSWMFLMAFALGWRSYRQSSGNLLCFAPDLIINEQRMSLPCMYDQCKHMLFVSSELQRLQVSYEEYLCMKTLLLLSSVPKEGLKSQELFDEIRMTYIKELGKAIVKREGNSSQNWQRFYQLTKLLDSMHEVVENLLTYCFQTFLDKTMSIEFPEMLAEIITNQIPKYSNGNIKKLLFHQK
Test: Inhibition of 3H-Dexamethasone Binding to Glucocorticoid Receptors
Settings: competitor 10^−6M; 3 nM 3H-dexamethasone

CC(=O)[C@H]1CC[C@H]2[C@@H]3CC[C@@H]4C[C@H](O)CC[C@]4(C)[C@H]3CC[C@]12C [5β-pregnan-3α-of-20-one, 5β-pregnan-3α-ol-20 -one]
% of Inhibition: 5.9%
